Results: the supplement of paper PMC8183993
Counter-ions that a name gives are not always drawn. Most of the lowest values are listed elsewhere, so they are rarer here than in the full data.

Each compound was assayed on U2OS (assay: mean cytoplasmic OPP incorporation (global translation) relative to DMSO (% of DMSO); higher = more protein synthesis). Settings: 10 µM; 24 h.
Description: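 Primary image-based screen in U2OS cells: compounds at 10 uM for 24 h, then a 1 h o-propargyl-puromycin (OPP) pulse, click labelling, and high-throughput microscopy. Mean cytoplasmic OPP intensity and nuclei count were normalised to DMSO wells within each plate (DMSO = 100) and averaged over triplicate plates.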

| SMILES | mean cytoplasmic OPP incorporation |
| --- | --- |
| N/C(=N/CCc1ccc(I)cc1)SCCCc1cnc[nH]1 [Iodophenpropit dihydrobromide] | 97.5 |
